Experimental data as given in patent publication US20250186602A1, “HUMANIZED ANTIBODY THAT BONDS TO EVA1 PROTEIN OR FUNCTIONAL FRAGMENT THEREOF, ANTIBODY-DRUG CONJUGATE AND CHIMERIC ANTIGEN RECEPTOR” (CURED INC., priority 2022, published 2025).

Tested on: Human glioma stem cells (hGIC)
Experiment: Cytotoxicity assay of B2E5-ADC against glioma (MTT)
Format: cell-based
Details: hGIC E6, hGIC E16, 3 days
Protocol: Human glioma stem cells (hGIC) were inoculated in a 96-well plate in an amount of 1000 cells per well. Next, B2E5-H2-L2, B2E5-ADC, or Kadcyla (trastuzumab emtansine) serially diluted two-fold was added in an amount of 100 μl/well, followed by culturing for 3 days in a CO2 incubator at 37° C. Then, 5 μl of MTT (5 mg/ml, Wako Pure Chemical) was added to each well, followed by culturing for 2 hours in a CO2 incubator at 37° C. After the culture liquid was discarded, 90 μl of DMSO was added, and after the cells were dissolved, the absorbance (570 nm) was measured by using a benchmark (Bio-Rad).
Note that as a positive control (100%), a measured value in a well in the absence of the antibody was used. In addition, as a negative control (0%), a measured value obtained by adding 5 μl of 1% TritonX100 to a well in the absence of the antibody was used.

## Kadcyla: Kadcyla (trastuzumab emtansine) [reference compound]
  cytotoxic activity against hGIC: no cytotoxic activity
